Amino acid sequences for entries named in this document (tags omitted).
UniProt P51160, whole entry: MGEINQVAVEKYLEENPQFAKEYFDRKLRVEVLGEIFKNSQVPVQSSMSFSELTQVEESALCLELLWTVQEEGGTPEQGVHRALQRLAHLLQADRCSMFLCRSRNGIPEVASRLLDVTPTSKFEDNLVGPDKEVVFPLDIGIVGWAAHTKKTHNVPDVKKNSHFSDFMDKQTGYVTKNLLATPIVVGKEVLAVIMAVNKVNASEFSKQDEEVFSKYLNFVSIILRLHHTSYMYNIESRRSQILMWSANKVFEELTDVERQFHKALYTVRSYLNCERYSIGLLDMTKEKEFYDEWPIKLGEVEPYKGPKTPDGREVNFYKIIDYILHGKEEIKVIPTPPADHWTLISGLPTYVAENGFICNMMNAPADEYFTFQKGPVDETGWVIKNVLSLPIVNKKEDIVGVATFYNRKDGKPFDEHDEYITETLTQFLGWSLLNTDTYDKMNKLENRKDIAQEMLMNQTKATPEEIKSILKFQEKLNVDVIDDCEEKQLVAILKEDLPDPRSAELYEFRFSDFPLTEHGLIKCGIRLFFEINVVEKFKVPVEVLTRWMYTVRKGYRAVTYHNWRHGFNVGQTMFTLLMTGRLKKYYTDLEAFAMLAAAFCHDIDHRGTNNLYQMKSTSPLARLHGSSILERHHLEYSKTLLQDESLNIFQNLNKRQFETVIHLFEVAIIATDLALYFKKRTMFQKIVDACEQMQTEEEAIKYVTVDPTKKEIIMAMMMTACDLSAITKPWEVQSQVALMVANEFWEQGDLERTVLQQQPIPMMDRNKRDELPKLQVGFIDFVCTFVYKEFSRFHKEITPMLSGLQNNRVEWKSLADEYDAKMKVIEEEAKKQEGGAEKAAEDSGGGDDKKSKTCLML

According to US20220380376A1, “Nitrogen Oxide-Donating PDE-5 and/or PDE-6 Inhibitor Compounds” (ILDONG PHARMACEUTICAL CO., LTD., priority 2019, published 2022):

Columns and labels:
human PDE-5A1 = human PDE-5A1 (Homo sapiens, UniProt O76074); assay: Human PDE-5A1 inhibition assay (fluorescence polarization); type: biochemical; conditions: read-out: IC50 (μM) PDE5A1; human PDE5A1, 100 nM FAM-cGMP, 60 minutes at room temperature
human PDE-6C = human PDE-6C (Homo sapiens, UniProt P51160); assay: Human PDE-6C inhibition assay (fluorescence polarization); type: biochemical; conditions: read-out: IC50 (μM) PDE6C, 100 nM FAM-cGMP, 60 minutes at room temperature

Compound | IC50 (human PDE-5A1) [µM] | IC50 (human PDE-6C) [µM]
CCCc1nc(C)c2c(=O)[nH]c(-c3cc(S(=O)(=O)N4CC(O)C4)ccc3OCC)nn12 | < 0.01 | 
CCCc1nn(C)c2c(=O)[nH]c(-c3cc(S(=O)(=O)N4CC(CN5CC(CCO)C5)C4)ccc3OCC)nc12 | 0.01 to 0.1 | 0.01 to 0.1
